Target: 72 kDa type IV collagenase (Homo sapiens, UniProt P08253)
Assay: Inhibition of MMP2 (unknown origin)

By UniProt entry, the sequences of proteins in these tests, tags left out. Where a name states a change or a piece, a line headed by the entry shows the natural chain unless it says otherwise.
UniProt P08253: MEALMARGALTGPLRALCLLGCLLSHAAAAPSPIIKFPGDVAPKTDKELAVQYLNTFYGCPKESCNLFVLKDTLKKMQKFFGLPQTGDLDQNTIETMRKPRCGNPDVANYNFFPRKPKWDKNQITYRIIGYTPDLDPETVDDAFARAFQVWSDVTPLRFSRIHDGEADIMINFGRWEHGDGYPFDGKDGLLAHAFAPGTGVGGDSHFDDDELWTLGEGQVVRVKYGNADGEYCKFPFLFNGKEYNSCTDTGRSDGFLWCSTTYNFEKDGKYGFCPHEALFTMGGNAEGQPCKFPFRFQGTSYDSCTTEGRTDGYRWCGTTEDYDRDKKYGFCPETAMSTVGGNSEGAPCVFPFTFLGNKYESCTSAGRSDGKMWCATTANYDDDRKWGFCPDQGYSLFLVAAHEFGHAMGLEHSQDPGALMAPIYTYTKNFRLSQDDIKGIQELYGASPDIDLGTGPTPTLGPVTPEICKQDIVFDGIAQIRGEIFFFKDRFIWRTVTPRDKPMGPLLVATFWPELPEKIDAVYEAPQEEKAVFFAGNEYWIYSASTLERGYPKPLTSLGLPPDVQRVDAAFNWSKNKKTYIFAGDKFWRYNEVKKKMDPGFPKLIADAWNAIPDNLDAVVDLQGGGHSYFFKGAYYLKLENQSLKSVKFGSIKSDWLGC

SMILES: N=C(N)Nc1ccc(Oc2ccc(S(=O)(=O)CC3CS3)cc2)cc1 (stereo unspecified)
- IC50: 21 nM

— ChEMBL document CHEMBL5241057, “Outline of gelatinase inhibitors as anti-cancer agents: A patent mini-review for 2010-present” (Eur J Med Chem, 2021)
